{"sequences": {"note": "By UniProt entry, the sequences of proteins in these tests, tags left out.", "UniProt P10275, whole entry T878A": "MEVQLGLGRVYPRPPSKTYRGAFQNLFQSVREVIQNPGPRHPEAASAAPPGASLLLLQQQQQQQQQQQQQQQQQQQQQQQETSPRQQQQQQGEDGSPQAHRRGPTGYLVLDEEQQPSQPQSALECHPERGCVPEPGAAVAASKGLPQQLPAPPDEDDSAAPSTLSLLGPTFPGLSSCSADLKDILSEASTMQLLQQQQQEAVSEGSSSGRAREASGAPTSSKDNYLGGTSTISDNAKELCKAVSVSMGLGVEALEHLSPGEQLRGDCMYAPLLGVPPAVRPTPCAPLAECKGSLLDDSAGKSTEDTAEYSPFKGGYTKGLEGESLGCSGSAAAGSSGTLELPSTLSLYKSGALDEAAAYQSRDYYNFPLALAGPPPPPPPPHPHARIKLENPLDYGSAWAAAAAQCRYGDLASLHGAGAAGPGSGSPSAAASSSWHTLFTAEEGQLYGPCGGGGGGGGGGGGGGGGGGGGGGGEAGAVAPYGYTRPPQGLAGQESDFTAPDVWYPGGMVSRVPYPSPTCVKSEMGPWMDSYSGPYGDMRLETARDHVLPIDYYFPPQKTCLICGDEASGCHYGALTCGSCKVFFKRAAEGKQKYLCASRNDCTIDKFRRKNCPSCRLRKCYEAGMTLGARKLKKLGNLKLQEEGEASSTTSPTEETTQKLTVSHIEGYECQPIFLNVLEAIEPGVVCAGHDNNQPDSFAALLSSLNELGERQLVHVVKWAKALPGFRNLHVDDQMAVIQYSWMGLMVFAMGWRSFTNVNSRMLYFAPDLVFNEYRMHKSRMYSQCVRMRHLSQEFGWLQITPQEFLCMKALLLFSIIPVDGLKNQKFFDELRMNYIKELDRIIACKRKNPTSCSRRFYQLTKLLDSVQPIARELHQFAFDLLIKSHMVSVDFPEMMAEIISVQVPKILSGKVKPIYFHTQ"}, "source": "patent US5135849A", "about": "“In-vitro methods for identifying compositions which are agonists and antagonists of androgens” (priority 1989, dated 1992)", "molecular_target": "androgen receptor (Homo sapiens, UniProt P10275, T878A)", "experiment": "Competition for androgen receptors with 3H-testosterone in LNCaP cytosol-nuclear extracts (RBA)", "data": [{"compound": "C[C@]1(O)CC[C@H]2[C@@H]3CCC4=CC(=O)CCC4=C3C=C[C@@]21C", "note": "[R1881, 17β-hydroxy-17α-methyl-estra-4,9,11-trien-3-one]", "values": [{"measurement": "RBA (relative binding affinity to the androgen receptor)", "result": 200}]}]}
